Experiments:
[1] = substrate: Nc1nc(O)c2ncn(COC(CO)CO)c2n1; assay: cells, lysate or membranes; details: other: net uptake (OCT1 minus empty vector), HEK293, 0.1-1000 µM substrate, Michaelis–Menten; pH 7.4
[2] = substrate: Nc1nnc(-c2cccc(Cl)c2Cl)c(N)n1; assay: cells, lysate or membranes; details: other: net uptake (OCT1 minus empty vector), HEK293, 0.1-1000 µM substrate, Michaelis–Menten; pH 7.4

B1: human OCT1*1 (wild-type) (Homo sapiens) (protein)
chain: MPTVDDILEQVGESGWFQKQAFLILCLLSAAFAPICVGIVFLGFTPDHHCQSPGVAELSQRCGWSPAEELNYTVPGLGPAGEAFLGQCRRYEVDWNQSALSCVDPLASLATNRSHLPLGPCQDGWVYDTPGSSIVTEFNLVCADSWKLDLFQSCLNAGFLFGSLGVGYFADRFGRKLCLLGTVLVNAVSGVLMAFSPNYMSMLLFRLLQGLVSKGNWMAGYTLITEFVGSGSRRTVAIMYQMAFTVGLVALTGLAYALPHWRWLQLAVSLPTFLFLLYYWCVPESPRWLLSQKRNTEAIKIMDHIAQKNGKLPPADLKMLSLEEDVTEKLSPSFADLFRTPRLRKRTFILMYLWFTDSVLYQGLILHMGATSGNLYLDFLYSALVEIPGAFIALITIDRVGRIYPMAMSNLLAGAACLVMIFISPDLHWLNIIIMCVGRMGITIAIQMICLVNAELYPTFVRNLGVMVCSSLCDIGGIITPFIVFRLREVWQALPLILFAVLGLLAAGVTLLLPETKGVALPETMKDAENLGRKAKPKENTIYLKVQTSEPSGT
- Km [1]: 849 ± 1560 µM
- Km [2]: 44.4 ± 63.1 µM

— paper PMC9687798, “Atypical Substrates of the Organic Cation Transporter 1” (Biomolecules, 2022)
